This assay concerns the target purified recombinant 161P2F10B extracellular domain (Tag5-161P2F10B ECD, amino acids 46-875) (human) (UniProt O14638). Kind of assay: SPR (BIAcore), MAb captured on chip, recombinant 161P2F10B injected, 1:1 fit.

One may read the Kd as the free concentration of one partner at which half of the binding sites on the other are occupied at equilibrium, for simple one-to-one binding. In general, koff refers to the rate constant with which the complex falls apart. The term kon denotes the second-order rate constant of association. On to “H16-7.200 (antibody; modification not given)”, for which the equilibrium dissociation constant (Kd) was found to be 9 nM, the koff amounted to 0.00059 s⁻¹ and the kon stood at 65000 M⁻¹ s⁻¹.

These data come from patent US20090022663A1.
